Laboratory results as given in PubChem BioAssay AID504775 (Broad Institute, 2011).
Only a part is listed here, and it is no random draw. The source made the active and inactive calls.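 The calls were made as follows: active = mean replicate activation of at least 60% and every replicate at or above 60%; inconclusive = mean or all-replicate condition met, but not both; inactive = mean below 60% and not all replicates reaching 60%.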

Assay: enhancers of HDL lipid transfer via mSR-BI – ldlA[mSR-BI] CHO cells, DiI fluorescence, primary screen (AID 504775);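 also: 0% = median plate neutral-control signal and 100% = twice that signal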
Settings: DiI-HDL uptake fluorescence, 3 h, at 12.5 µM, active compounds read high, 100 = double the neutral-control signal
Procedure, shortened: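 Material – SR-BI-overexpressing, LDLR-lacking CHO cells · Medium – BSA-supplemented, HEPES-buffered Ham's F12, pH 7.4 · Doses – single concentration · Times – compound with DiI-HDL co-incubation, 3 h at 37 °C · Measured by – bottom-read fluorescence, 550/595 nm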
In the case of `Nc1ccc([As](=O)(O)c2ccc(N)cc2)cc1`, the activation is reported as inactive: 16.8%.
With `CCN(/C(=N/P(=O)(N1CCOCC1)N1CCOCC1)N1CCOCC1)c1ccc(OC)cc1` the activation was inactive: 10.6%.
For `CN(C)C(=O)OCCc1n(C)cc[n+]1C`, the activation was inactive: 23.9%.
With `CC(C)=N/N=C(\N)N[N+](=O)[O-]` the activation was inactive: -0.047%.
With `COc1ccc(C2=NCC(CBr)S2)cc1` (configuration not stated) the activation was inactive: -2.65%.
With `CC(=O)N1C2C3N(C(C)=O)C1C1N(C(C)=O)C(C(N1C(C)=O)N3C(C)=O)N2C(C)=O` the activation was inactive: 3.59%.
With `O=[N+]([O-])c1cccc2n[nH]nc12` the activation was inactive: 45.3%.
In the case of `O=[N+]([O-])c1cc([N+](=O)[O-])c(CCNc2ccccc2)c([N+](=O)[O-])c1`, the activation is reported as inactive: -8.88%.
For `CCc1nc2c(n1)c1c(non1O)c1c2no[n+]1[O-]`, the activation was inactive: 8.89%.
For `Cc1ccc(NP(=O)(Oc2ccccc2)Oc2ccccc2)nc1`, the activation was inactive: -2.9%.
For `CCOC(=O)c1ccc(NC(=O)C(C)(CCl)SC)cc1` (configuration not stated), the activation was inactive: -4.36%.
For `O=C(OC1CN2CCC1CC2)c1cccc([N+](=O)[O-])c1` (configuration not stated), the activation was inactive: 8.07%.
With `CCC(C)N(CC(C)C)C(=S)SC(NC(C)=O)C(Cl)(Cl)Cl` (configuration not stated) the activation was inactive: -27.5%.
For `COP1(=S)c2c(C)nn(CCC#N)c2N=C(c2ccc(F)cc2)N1C` (configuration not stated), the activation was inactive: -20.1%.
In the case of `O=C(Nc1ccncc1[N+](=O)[O-])c1ccc([N+](=O)[O-])cc1[N+](=O)[O-]`, the activation is reported as inactive: 6.42%.
For `CCOC(=O)Nc1cccc([As](=O)(O)O)c1`, the activation was inactive: 21%.
For `O=[N+]([O-])c1ccc(Nc2ccc(Oc3ccc([N+](=O)[O-])cc3[N+](=O)[O-])cc2)c([N+](=O)[O-])c1`, the activation was inactive: 8.64%.
For `Cc1cc(SC(NC=O)C(Cl)(Cl)Cl)ncn1` (configuration not stated), the activation was inactive: 11.3%.
In the case of `O=P(Nc1ccccn1)(c1cccc2ccccc12)c1cccc2ccccc12`, the activation is reported as inactive: -0.121%.
In the case of `CC1CCNP(=O)(N(CCCl)CCCl)O1` (configuration not stated), the activation is reported as inactive: 16.2%.
With `CCOC(=O)Nc1ccc([As](=O)(O)O)c(O)c1` the activation was inactive: -7.21%.
For `Cc1cc(SC(NC(=O)c2ccccc2)C(Cl)(Cl)Cl)nc(C(C)C)n1` (configuration not stated), the activation was inactive: 15.8%.
In the case of `CCCCOc1ccc(C(=O)NCC2(N3CCCCC3)CCCCC2)cc1OC`, the activation is reported as inactive: 6.27%.
With `CC(C)c1ccc(OP(=O)(Nc2ccccn2)Oc2ccccc2F)cc1` (configuration not stated) the activation was inactive: 12.9%.
In the case of `COC(=O)C1(C)COP(=O)(N2CCCCCC2)OC1` (configuration not stated), the activation is reported as inactive: 17.3%.
For `ClCCSc1nnc(-c2cccnc2)o1`, the activation was inactive: 15.3%.
In the case of `O=[N+]([O-])c1cc([N+](=O)[O-])c(-c2ccn[nH]2)s1`, the activation is reported as inactive: 14.1%.
In the case of `O=C(OC1CN2CCC1CC2)c1cccc2[nH]cnc12` (configuration not stated), the activation is reported as inactive: 9.54%.
In the case of `CCN(CC)C(=S)SC(NC=O)C(Cl)(Cl)Cl` (configuration not stated), the activation is reported as inactive: 5.71%.
For `CC(C)NC(=O)NP(=O)(Oc1ccccc1)Oc1ccccc1`, the activation was inactive: -1.72%.
For `COc1cc(C(=O)NCC2(N3CCOCC3)CCCCC2)ccc1OCC(C)C`, the activation was inactive: -21.6%.
In the case of `O=[N+]([O-])c1ccc(-c2cc([N+](=O)[O-])c(O)c([N+](=O)[O-])c2)cc1`, the activation is reported as inactive: 14.2%.
For `C[As](=O)(O)c1cccc(C(=O)O)c1`, the activation was inactive: 11.3%.
In the case of `O=[As](O)(c1ccc(O)cc1)c1ccccc1O`, the activation is reported as inactive: 35.6%.
For `Cc1ccc2nc3c(c(C)c2c1)CC(C(Cl)Cl)S3` (configuration not stated), the activation was inactive: -5.32%.
For `Cc1ccc(OP(=O)(Nc2ccc([N+](=O)[O-])cn2)Oc2ccc(C)cc2)cc1`, the activation was inactive: 8.77%.
In the case of `COc1ccc(N/C(=N/P(=O)(N2CCOCC2)N2CCOCC2)N2CCOCC2)cc1`, the activation is reported as inactive: 26.5%.
With `O=[N+]([O-])c1cc(Oc2ccc([N+](=O)[O-])cc2C(F)(F)F)cc([N+](=O)[O-])c1` the activation was inactive: -40.3%.
For `Cc1cc(=O)[nH]c(N[N+](=O)[O-])n1`, the activation was inactive: 3.21%.
For `O=C(OC1CN2CCC1CC2)C12CC3CC(CC(C3)C1)C2` (configuration not stated), the activation was inactive: -0.382%.
With `Cc1c2c(nc3ccccc13)SC(C(Cl)Cl)C2` (configuration not stated) the activation was inactive: -3.33%.
For `COc1cc(I)ccc1[As](=O)(O)O`, the activation was inactive: -5.99%.
With `COc1ccc2nc(NP(=O)(c3ccccc3)c3ccccc3)sc2c1` the activation was inactive: -3.04%.
In the case of `O=P1(N(CCCl)CCCl)Nc2ccccc2N1`, the activation is reported as inactive: 25.2%.
For `O=P1(N(CCCl)CCCl)OCCCN1CCCl` (configuration not stated), the activation was inactive: 0.976%.
For `CCCOP(=S)(Nc1nc(N)cc(=O)[nH]1)OCCC`, the activation was inactive: 31.9%.
With `Nc1cccc2c([As](=O)(O)O)cccc12` the activation was inactive: -70%.
In the case of `CCOP(=O)(Nc1cccc2ccccc12)OCC`, the activation is reported as inactive: -4.58%.
For `COc1cc(C2NCCC3(OCCO3)C2(C)C)cc(OC)c1OC` (configuration not stated), the activation was inactive: 6.93%.
With `COc1cc(C(=O)NCC2(N3CCOCC3)CCCCC2)cc(Cl)c1OC(C)C` the activation was inactive: -25.4%.
With `O=[As](O)(O)c1cccnc1` the activation was inactive: 22.2%.
With `O=C(OC1CN2CCC1CC2)c1ccc(Cl)cc1` (configuration not stated) the activation was inactive: 5.91%.
In the case of `O=[As](O)(c1cccc(O)c1)c1cccc(O)c1`, the activation is reported as inactive: -3.64%.
In the case of `Cc1cccc(OCC(=O)OC2CN3CCC2CC3)c1` (configuration not stated), the activation is reported as inactive: 28.3%.
With `NC(=O)Nc1ccc([As](=O)(O)O)cc1` the activation was inactive: 5.85%.
In the case of `CN(C(=O)Cc1ccc(Cl)c(Cl)c1)[C@H]1CC[C@@]2(CCCO2)C[C@@H]1N1CCCC1`, the activation is reported as inactive: 12.4%.
In the case of `CN(C)C(=O)c1cc([N+](=O)[O-])cc2c1-c1c(cc([N+](=O)[O-])cc1[N+](=O)[O-])C2=O`, the activation is reported as inactive: -5.49%.
For `O=[N+]([O-])c1ccc2c(c1)nnn2O`, the activation was inactive: 3%.
With `CCOP1(=S)c2c(C)nn(CCC#N)c2N=C(c2ccc(F)cc2)N1C` (configuration not stated) the activation was inactive: -27.3%.
With `CN(C(=O)Cc1ccccc1)[C@@H]1CC[C@]2(CCCO2)C[C@H]1N1CCCC1` the activation was inactive: -3.6%.
In the case of `N#CCCN(C(=O)COC(=O)C(O)(c1ccccc1)c1ccccc1)c1ccc(F)cc1`, the activation is reported as inactive: 5.9%.
In the case of `O=P(Nc1nccs1)(c1ccccc1)c1nc2ccccc2s1` (configuration not stated), the activation is reported as inactive: -10.4%.
With `O=P(Nc1nccs1)(Oc1ccccc1)Oc1ccccc1` the activation was inactive: 8.19%.
With `CCOP1(=S)c2c(C)nn(CCC#N)c2N=C(c2ccccc2F)N1C` (configuration not stated) the activation was inactive: -15.4%.
With `O=C(O)COc1ccc([As](=O)(O)O)cc1[N+](=O)[O-]` the activation was inactive: -1.32%.
In the case of `Nc1ccccc1[As](=O)(O)c1ccccc1`, the activation is reported as inactive: 7.39%.
In the case of `O=P1(Nc2ncccn2)COc2ccccc2OC1`, the activation is reported as inactive: -29.9%.
In the case of `NS(=O)(=O)c1cccc(NC(=O)COC(=O)C(O)(c2ccccc2)c2ccccc2)c1`, the activation is reported as inactive: -2.74%.
With `O=P1(Nc2ccc(Br)cn2)COc2ccccc2OC1` the activation was inactive: 8.65%.
In the case of `O=[As](O)(c1cccs1)c1cccs1`, the activation is reported as inactive: 15.6%.
In the case of `Nc1cccc([As](=O)(O)c2ccccc2)c1`, the activation is reported as inactive: 22.4%.
With `Cc1ccc(C(=O)OC2CN3CCC2CC3)cc1` (configuration not stated) the activation was inactive: 47%.
In the case of `CC1CCC(C(C)C)C(OP(=O)(Nc2ccccn2)c2ccccc2)C1` (configuration not stated), the activation is reported as inactive: 9.44%.
For `Cc1nn(-c2ccccc2)c2c1P(=O)(N1CCOCC1)N(C)C(c1ccccc1)=N2` (configuration not stated), the activation was inactive: 22.1%.
For `CCCC1OP(=O)(Nc2ccccc2)OCC1CC` (configuration not stated), the activation was inactive: 5.51%.
In the case of `O=C(/C=C/c1ccccc1)OC1CN2CCC1CC2` (configuration not stated), the activation is reported as inactive: 5.84%.
In the case of `CN(C)C1(CNC(=O)c2ccc(S(C)(=O)=O)cc2)CCCCC1`, the activation is reported as inactive: 7.09%.
In the case of `COc1ccccc1CNC(=O)COC(=O)C(O)(c1ccccc1)c1ccccc1`, the activation is reported as inactive: -2.54%.
For `CC1(CBr)Cn2c(nc3ccccc3c2=O)S1` (configuration not stated), the activation was inactive: 10%.
With `CN(C(=O)Cc1ccc(Cl)c(Cl)c1)[C@@H]1CCCC[C@H]1N1CCCC1` the activation was inactive: 16.3%.
For `CC(C)/C=N\N=C(\N)N[N+](=O)[O-]`, the activation was inactive: -2.89%.
With `CCOP(=O)(Nc1ccc(C)cn1)OCC` the activation was inactive: 17.8%.
In the case of `CCOP(=O)(NC(=NC(C)c1ccccc1)NC(C)c1ccccc1)OCC` (configuration not stated), the activation is reported as inactive: -2.2%.
In the case of `CCC1=CC2Cc3nc4ccc(Cl)cc4c(N)c3C(C1)C2` (configuration not stated), the activation is reported as inactive: 11%.
In the case of `O=P1(Nc2ccccn2)COc2ccccc2OC1`, the activation is reported as inactive: 5.6%.
With `CC(C)(C)C(=O)NC(Sc1ncccn1)C(Cl)(Cl)Cl` (configuration not stated) the activation was inactive: 5.07%.
For `Clc1n[nH]nc1-c1nn[nH][15n]1`, the activation was inactive: 15.6%.
